How the values were obtained:
[1] = target: hGAL1 (human galanin receptor GalR1) (Homo sapiens, UniProt P47211); test: Competitive binding assay, Eu-labeled galanin, time-resolved fluorescence
[2] = target: T1, hGAL2 (human galanin receptor GalR2) (Homo sapiens, UniProt O43603); test: as above
T1 sequence (O43603 1-387): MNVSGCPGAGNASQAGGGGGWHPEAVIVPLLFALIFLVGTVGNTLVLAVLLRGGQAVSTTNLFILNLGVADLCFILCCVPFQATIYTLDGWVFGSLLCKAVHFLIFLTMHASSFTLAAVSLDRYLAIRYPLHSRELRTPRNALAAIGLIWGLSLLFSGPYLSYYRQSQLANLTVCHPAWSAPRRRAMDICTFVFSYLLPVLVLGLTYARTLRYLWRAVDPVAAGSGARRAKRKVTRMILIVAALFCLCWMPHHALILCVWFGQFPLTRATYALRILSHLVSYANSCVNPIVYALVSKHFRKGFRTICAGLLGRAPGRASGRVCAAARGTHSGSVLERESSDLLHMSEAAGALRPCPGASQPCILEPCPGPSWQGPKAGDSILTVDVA

Amino acid sequences for entries named in this document (tags omitted). A change or cut given only in a name is not applied to a line headed by its entry.
UniProt P47211: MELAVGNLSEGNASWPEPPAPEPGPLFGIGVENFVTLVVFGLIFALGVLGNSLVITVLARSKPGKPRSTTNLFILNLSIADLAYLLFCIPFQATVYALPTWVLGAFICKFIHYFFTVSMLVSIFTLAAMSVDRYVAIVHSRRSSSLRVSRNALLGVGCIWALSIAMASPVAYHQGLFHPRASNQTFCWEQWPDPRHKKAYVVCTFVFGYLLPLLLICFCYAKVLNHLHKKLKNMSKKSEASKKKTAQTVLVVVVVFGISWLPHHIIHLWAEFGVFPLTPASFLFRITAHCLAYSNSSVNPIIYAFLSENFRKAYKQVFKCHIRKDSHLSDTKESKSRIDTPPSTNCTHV

Compound CCCCCCCCCCCCCCCC(=O)NCCCC[C@H](NC(=O)[C@@H](CCCCN)NC(=O)[C@@H](CCCCN)NC(=O)[C@@H]1CCCN1C(=O)CNC(=O)[C@H](CC(C)C)NC(=O)[C@H](CC(C)C)NC(=O)[C@H](Cc1ccc(O)cc1)NC(=O)CNC(=O)[C@H](C)NC(=O)[C@H](CO)NC(=O)[C@H](CC(N)=O)NC(=O)[C@H](CC(C)C)NC(=O)[C@@H](NC(=O)[C@H](Cc1c[nH]c2ccccc12)NC(=O)CNC)[C@@H](C)O)C(=O)N[C@H](CCCCN)C(N)=O [Gal-B9] has a Ki [1] of 0.9 ± 0.2 nM and a Ki [2] of 15 ± 8.5 nM.
